Experimental data: PMC9569420 (Communications Biology, 2022)
“And” between values parts separate entries of the source, which are not always exact repeats. Equal values may be shown once.

The chains behind the UniProt entries cited, without tags or fusion partners. Where a name states a change or a piece, a line headed by the entry shows the natural chain unless it says otherwise. Residues count along the entry.
UniProt Q00534, whole entry: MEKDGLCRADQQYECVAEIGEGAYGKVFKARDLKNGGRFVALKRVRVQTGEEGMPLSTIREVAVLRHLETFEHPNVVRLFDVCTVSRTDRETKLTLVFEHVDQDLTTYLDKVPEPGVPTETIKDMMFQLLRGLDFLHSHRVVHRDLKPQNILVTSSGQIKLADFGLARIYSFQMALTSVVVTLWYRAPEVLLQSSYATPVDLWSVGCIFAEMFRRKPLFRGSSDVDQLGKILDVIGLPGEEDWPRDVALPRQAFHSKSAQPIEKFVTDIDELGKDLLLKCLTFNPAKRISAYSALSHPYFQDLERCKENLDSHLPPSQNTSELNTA
UniProt P29320, 21-983: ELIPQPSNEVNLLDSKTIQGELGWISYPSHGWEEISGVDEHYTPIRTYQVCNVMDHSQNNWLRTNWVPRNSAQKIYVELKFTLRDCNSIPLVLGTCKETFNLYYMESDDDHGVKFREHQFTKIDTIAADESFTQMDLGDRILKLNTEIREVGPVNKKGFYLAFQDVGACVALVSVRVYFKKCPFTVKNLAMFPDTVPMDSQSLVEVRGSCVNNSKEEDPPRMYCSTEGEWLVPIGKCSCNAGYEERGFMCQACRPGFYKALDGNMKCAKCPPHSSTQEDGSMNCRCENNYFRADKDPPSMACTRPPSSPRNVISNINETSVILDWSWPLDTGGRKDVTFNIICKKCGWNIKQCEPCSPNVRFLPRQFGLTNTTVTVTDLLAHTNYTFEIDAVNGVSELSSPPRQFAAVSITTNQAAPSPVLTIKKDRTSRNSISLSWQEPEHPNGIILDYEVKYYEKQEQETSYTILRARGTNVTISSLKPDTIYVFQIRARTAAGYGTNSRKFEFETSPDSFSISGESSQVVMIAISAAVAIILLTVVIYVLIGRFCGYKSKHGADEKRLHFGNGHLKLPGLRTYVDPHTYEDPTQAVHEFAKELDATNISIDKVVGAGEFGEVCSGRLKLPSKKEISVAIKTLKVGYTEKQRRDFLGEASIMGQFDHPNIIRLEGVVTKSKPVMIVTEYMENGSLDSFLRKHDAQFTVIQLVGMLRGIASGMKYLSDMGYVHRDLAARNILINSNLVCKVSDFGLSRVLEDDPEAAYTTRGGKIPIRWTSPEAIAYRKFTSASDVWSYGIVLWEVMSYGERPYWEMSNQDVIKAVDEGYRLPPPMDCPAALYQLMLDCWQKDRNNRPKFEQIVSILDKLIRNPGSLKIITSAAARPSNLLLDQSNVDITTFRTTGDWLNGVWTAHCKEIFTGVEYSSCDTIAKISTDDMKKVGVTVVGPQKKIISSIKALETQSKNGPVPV
UniProt Q9UF33, 23-1036: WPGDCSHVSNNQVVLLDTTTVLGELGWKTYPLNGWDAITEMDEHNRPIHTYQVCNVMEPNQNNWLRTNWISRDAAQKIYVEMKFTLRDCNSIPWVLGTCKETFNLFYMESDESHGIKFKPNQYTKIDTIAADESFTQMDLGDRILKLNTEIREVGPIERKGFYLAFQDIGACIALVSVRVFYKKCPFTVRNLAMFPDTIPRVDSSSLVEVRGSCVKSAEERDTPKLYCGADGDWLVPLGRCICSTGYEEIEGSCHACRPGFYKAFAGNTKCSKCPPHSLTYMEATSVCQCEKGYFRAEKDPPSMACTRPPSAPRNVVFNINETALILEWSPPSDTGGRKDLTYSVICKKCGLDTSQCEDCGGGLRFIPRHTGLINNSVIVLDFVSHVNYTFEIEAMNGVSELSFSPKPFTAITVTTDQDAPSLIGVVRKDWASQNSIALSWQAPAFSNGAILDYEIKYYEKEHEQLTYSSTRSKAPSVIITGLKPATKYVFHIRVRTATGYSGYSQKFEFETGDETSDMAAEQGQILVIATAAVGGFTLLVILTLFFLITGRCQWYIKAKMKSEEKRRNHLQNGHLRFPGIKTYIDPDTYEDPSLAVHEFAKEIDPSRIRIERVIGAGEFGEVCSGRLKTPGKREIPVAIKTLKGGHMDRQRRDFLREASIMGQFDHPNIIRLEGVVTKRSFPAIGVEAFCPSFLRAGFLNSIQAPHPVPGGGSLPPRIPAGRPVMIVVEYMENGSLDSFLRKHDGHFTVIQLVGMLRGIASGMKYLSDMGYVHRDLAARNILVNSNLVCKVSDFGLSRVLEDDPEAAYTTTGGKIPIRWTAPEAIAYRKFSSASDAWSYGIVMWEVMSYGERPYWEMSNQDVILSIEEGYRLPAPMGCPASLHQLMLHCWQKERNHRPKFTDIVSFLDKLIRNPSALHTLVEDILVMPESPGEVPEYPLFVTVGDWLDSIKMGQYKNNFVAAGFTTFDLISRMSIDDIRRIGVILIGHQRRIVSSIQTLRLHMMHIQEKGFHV
UniProt O14920: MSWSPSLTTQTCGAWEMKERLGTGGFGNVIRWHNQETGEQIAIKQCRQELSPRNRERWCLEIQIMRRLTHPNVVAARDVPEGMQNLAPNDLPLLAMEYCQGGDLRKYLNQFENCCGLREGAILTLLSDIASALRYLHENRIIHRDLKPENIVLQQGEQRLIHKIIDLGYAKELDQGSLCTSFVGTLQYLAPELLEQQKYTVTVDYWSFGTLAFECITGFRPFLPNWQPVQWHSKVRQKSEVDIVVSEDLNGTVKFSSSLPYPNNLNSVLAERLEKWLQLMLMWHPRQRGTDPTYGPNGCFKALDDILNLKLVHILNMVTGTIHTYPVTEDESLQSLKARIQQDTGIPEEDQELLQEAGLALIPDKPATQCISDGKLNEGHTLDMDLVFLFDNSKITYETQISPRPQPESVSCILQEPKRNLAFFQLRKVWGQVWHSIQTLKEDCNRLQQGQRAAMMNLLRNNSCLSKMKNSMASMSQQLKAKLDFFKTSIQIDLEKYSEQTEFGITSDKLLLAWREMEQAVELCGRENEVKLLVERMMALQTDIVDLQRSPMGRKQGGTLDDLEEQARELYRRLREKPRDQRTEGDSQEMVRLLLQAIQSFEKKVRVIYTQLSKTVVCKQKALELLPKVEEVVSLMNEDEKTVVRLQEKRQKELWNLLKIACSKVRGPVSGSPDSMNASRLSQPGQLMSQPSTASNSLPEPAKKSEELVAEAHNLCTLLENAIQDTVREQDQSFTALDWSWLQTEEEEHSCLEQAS
UniProt Q9P286: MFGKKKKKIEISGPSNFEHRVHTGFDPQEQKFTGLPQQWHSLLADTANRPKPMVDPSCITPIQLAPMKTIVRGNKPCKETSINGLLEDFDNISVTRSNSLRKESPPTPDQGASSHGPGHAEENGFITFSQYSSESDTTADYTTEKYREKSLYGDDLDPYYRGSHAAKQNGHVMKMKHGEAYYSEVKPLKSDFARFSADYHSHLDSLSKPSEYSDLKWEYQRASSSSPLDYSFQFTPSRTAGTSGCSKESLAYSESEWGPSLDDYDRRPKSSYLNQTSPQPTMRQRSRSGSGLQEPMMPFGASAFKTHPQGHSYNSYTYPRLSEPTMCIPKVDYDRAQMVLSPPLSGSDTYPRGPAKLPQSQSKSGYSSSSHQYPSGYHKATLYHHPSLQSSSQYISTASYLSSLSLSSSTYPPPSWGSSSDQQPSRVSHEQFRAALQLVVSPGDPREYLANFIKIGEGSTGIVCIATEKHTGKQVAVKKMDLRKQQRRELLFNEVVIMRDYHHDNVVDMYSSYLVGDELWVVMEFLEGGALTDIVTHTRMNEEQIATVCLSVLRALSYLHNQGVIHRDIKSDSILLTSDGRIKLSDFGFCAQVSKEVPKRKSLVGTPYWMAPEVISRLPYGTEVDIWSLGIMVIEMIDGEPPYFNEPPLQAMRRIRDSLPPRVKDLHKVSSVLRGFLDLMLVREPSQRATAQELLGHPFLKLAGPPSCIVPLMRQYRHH
UniProt P11309, whole entry: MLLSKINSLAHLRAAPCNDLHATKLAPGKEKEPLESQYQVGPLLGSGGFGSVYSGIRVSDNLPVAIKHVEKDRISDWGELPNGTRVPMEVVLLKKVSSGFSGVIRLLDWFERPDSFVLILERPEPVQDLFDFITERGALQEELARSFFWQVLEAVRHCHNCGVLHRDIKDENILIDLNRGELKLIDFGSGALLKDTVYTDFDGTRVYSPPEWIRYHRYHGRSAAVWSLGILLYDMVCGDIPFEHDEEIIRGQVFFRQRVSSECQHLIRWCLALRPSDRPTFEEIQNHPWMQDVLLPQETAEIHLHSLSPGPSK
UniProt Q04912, 25-1400: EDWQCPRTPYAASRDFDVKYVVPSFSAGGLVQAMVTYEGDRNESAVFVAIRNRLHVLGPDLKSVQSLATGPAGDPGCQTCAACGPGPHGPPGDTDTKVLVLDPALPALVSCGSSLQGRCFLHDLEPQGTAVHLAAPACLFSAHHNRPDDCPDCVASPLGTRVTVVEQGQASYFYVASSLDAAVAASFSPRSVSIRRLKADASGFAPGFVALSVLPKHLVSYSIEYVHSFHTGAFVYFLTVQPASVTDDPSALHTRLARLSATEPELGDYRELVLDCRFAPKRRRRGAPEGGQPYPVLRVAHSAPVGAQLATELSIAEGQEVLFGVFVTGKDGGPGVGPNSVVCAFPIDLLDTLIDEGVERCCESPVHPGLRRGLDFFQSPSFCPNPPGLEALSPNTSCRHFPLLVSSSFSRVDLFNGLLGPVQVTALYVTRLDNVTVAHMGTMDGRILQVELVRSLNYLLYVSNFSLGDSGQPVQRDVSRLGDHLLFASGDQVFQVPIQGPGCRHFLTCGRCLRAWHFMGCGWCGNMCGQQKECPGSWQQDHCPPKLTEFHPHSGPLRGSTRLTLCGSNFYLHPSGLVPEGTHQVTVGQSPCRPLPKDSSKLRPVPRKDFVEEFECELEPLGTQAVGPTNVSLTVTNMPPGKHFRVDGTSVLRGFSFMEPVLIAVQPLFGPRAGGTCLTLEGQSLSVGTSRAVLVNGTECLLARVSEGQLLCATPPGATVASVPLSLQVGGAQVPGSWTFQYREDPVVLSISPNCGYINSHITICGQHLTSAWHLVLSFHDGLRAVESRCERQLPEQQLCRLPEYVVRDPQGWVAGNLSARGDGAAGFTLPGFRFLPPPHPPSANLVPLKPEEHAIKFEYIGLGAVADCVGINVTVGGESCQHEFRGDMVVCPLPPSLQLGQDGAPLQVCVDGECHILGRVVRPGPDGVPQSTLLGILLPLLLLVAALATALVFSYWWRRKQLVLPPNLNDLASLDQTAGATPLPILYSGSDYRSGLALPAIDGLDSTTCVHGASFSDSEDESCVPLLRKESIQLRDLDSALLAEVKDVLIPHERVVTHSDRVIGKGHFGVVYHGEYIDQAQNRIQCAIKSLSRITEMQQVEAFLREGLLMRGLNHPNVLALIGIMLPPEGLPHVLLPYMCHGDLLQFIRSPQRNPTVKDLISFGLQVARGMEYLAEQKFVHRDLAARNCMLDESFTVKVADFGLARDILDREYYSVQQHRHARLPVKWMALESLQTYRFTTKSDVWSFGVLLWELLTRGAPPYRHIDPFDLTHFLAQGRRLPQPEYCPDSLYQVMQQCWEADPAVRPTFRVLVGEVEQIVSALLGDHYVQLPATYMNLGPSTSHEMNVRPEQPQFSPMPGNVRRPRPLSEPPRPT
UniProt Q13131: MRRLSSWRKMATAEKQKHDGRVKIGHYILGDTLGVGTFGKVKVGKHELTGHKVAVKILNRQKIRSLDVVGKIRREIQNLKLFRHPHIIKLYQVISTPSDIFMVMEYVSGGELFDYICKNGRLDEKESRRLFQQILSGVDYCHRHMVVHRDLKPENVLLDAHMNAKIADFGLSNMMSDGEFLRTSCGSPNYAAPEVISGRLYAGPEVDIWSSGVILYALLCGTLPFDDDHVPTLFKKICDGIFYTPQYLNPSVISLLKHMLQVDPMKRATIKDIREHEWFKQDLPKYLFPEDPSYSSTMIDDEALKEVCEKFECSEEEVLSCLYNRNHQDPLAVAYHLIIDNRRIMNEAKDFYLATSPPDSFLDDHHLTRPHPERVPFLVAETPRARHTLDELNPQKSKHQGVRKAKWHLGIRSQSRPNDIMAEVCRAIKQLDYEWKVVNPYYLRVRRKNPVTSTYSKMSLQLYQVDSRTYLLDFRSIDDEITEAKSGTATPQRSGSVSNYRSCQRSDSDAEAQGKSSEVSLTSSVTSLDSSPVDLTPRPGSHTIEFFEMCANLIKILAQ
UniProt P50750, whole entry: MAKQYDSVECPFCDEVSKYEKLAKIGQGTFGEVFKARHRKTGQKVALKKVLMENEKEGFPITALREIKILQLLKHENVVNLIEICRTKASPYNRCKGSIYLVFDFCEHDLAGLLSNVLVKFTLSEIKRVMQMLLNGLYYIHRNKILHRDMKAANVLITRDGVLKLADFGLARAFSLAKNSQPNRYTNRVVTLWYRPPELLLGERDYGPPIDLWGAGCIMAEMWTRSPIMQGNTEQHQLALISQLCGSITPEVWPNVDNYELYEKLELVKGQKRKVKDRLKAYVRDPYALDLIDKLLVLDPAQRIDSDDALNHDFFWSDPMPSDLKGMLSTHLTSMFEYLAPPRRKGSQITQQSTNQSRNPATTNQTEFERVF

Key:
ALK1/ACVRL1 = molecular target: T1, ALK1/ACVRL1 (Homo sapiens, UniProt P37023); assay: HotSpot kinase assay; format: biochemical; conditions: 10µM
T1 construct: purchased Reaction Biology Corporation

ALK5/TGFBR1 = molecular target: T2, ALK5/TGFBR1 (Homo sapiens, UniProt P36897); assay: HotSpot kinase assay; format: biochemical; conditions: 10µM
T2 construct: purchased Reaction Biology Corporation

Aurora A = molecular target: T3, Aurora A (Homo sapiens, UniProt O14965); assay: HotSpot kinase assay; format: biochemical; conditions: 10µM
T3 construct: purchased Reaction Biology Corporation

CAMK1b = molecular target: T4, CAMK1b (Homo sapiens, UniProt Q6P2M8); assay: HotSpot kinase assay; format: biochemical; conditions: 10µM
T4 construct: purchased Reaction Biology Corporation

CAMK1g = molecular target: T5, CAMK1g (Homo sapiens, UniProt Q96NX5); assay: HotSpot kinase assay; format: biochemical; conditions: 10µM
T5 construct: purchased Reaction Biology Corporation

CDK6/cyclin D3 = molecular target: T6, CDK6/cyclin D3 (Homo sapiens, UniProt Q00534); assay: HotSpot kinase assay; format: biochemical; conditions: 10µM
T6 construct: purchased Reaction Biology Corporation

CK2a = molecular target: T7, CK2a (Homo sapiens, UniProt P68400); assay: HotSpot kinase assay; format: biochemical; conditions: 10µM
T7 construct: purchased Reaction Biology Corporation

EPHA3 = molecular target: T8, EPHA3 (Homo sapiens, UniProt P29320); assay: HotSpot kinase assay; format: biochemical; conditions: 10µM
T8 construct: purchased Reaction Biology Corporation

EPHA6 = molecular target: T9, EPHA6 (Homo sapiens, UniProt Q9UF33); assay: HotSpot kinase assay; format: biochemical; conditions: 10µM
T9 construct: purchased Reaction Biology Corporation

FMS = molecular target: T10, FMS (Homo sapiens, UniProt P07333); assay: HotSpot kinase assay; format: biochemical; conditions: 10µM
T10 construct: purchased Reaction Biology Corporation

HIPK3 = molecular target: T11, HIPK3 (Homo sapiens, UniProt Q9H422); assay: HotSpot kinase assay; format: biochemical; conditions: 10µM
T11 construct: purchased Reaction Biology Corporation

IKKb/IKBKB = molecular target: T12, IKKb/IKBKB (Homo sapiens, UniProt O14920); assay: HotSpot kinase assay; format: biochemical; conditions: 10µM
T12 construct: purchased Reaction Biology Corporation

LATS2 = molecular target: T13, LATS2 (Homo sapiens, UniProt Q9NRM7); assay: HotSpot kinase assay; format: biochemical; conditions: 10µM
T13 construct: purchased Reaction Biology Corporation

LCK2/ICK = molecular target: T14, LCK2/ICK (Homo sapiens, UniProt Q9UPZ9); assay: HotSpot kinase assay; format: biochemical; conditions: 10µM
T14 construct: purchased Reaction Biology Corporation

LRRK2 = molecular target: T15, LRRK2 (Homo sapiens, UniProt Q5S007); assay: HotSpot kinase assay; format: biochemical; conditions: 10µM
T15 construct: purchased Reaction Biology Corporation

MARK4 = molecular target: T16, MARK4 (Homo sapiens, UniProt Q96L34); assay: HotSpot kinase assay; format: biochemical; conditions: 10µM
T16 construct: purchased Reaction Biology Corporation

MKK7 = molecular target: T17, MKK7 (Homo sapiens, UniProt O14733); assay: HotSpot kinase assay; format: biochemical; conditions: 10µM
T17 construct: purchased Reaction Biology Corporation

P38d/MAPK13 = molecular target: T18, P38d/MAPK13 (Homo sapiens, UniProt O15264); assay: HotSpot kinase assay; format: biochemical; conditions: 10µM
T18 construct: purchased Reaction Biology Corporation

PAK5 = molecular target: T19, PAK5 (Homo sapiens, UniProt Q9P286); assay: HotSpot kinase assay; format: biochemical; conditions: 10µM
T19 construct: purchased Reaction Biology Corporation

PHKg1 = molecular target: T20, PHKg1 (Homo sapiens, UniProt Q16816); assay: HotSpot kinase assay; format: biochemical; conditions: 10µM
T20 construct: purchased Reaction Biology Corporation

PHKg2 = molecular target: T21, PHKg2 (Homo sapiens, UniProt P15735); assay: HotSpot kinase assay; format: biochemical; conditions: 10µM
T21 construct: purchased Reaction Biology Corporation

PIM1 = molecular target: T22, PIM1 (Homo sapiens, UniProt P11309); assay: HotSpot kinase assay; format: biochemical; conditions: 10µM
T22 construct: purchased Reaction Biology Corporation

PKCzeta = molecular target: T23, PKCzeta (Homo sapiens, UniProt Q05513); assay: HotSpot kinase assay; format: biochemical; conditions: 10µM
T23 construct: purchased Reaction Biology Corporation

PKN3/PRK3 = molecular target: T24, PKN3/PRK3 (Homo sapiens, UniProt Q6P5Z2); assay: HotSpot kinase assay; format: biochemical; conditions: 10µM
T24 construct: purchased Reaction Biology Corporation

RON/MST1R = molecular target: T25, RON/MST1R (Homo sapiens, UniProt Q04912); assay: HotSpot kinase assay; format: biochemical; conditions: 10µM
T25 construct: purchased Reaction Biology Corporation

ROS/ROS1 = molecular target: T26, ROS/ROS1 (Homo sapiens, UniProt P08922); assay: HotSpot kinase assay; format: biochemical; conditions: 10µM
T26 construct: purchased Reaction Biology Corporation

SRMS = molecular target: T27, SRMS (Homo sapiens, UniProt Q9H3Y6); assay: HotSpot kinase assay; format: biochemical; conditions: 10µM
T27 construct: purchased Reaction Biology Corporation

STK38L/NDR2 = molecular target: T28, STK38L/NDR2 (Homo sapiens, UniProt Q9Y2H1); assay: HotSpot kinase assay; format: biochemical; conditions: 10µM
T28 construct: purchased Reaction Biology Corporation

WNK1 = molecular target: T29, WNK1 (Homo sapiens, UniProt Q9H4A3); assay: HotSpot kinase assay; format: biochemical; conditions: 10µM
T29 construct: purchased Reaction Biology Corporation

YSK4/MAP3K19 = molecular target: T30, YSK4/MAP3K19 (Homo sapiens, UniProt Q56UN5); assay: HotSpot kinase assay; format: biochemical; conditions: 10µM
T30 construct: purchased Reaction Biology Corporation

AMPK(A1/B1/G2) = molecular target: T31, AMPK(A1/B1/G2) (Homo sapiens, UniProt Q13131); assay: HotSpot kinase assay; format: biochemical; conditions: 10µM
T31 construct: purchased Reaction Biology Corporation

AMPK(A1/B2/G1) = molecular target: T32, AMPK(A1/B2/G1) (Homo sapiens, UniProt Q13131); assay: HotSpot kinase assay; format: biochemical; conditions: 10µM
T32 construct: purchased Reaction Biology Corporation

AMPK(A2/B2/G3) = molecular target: T33, AMPK(A2/B2/G3) (Homo sapiens, UniProt P54646); assay: HotSpot kinase assay; format: biochemical; conditions: 10µM
T33 construct: purchased Reaction Biology Corporation

EEF2K = molecular target: T34, EEF2K (Homo sapiens, UniProt O00418); assay: HotSpot kinase assay; format: biochemical; conditions: 10µM
T34 construct: purchased Reaction Biology Corporation

HSV-2(G) = assay: HSV plaque assay, HaCat cells; format: cell-based
CDK9/cyclin K = CDK9/cyclin K (Homo sapiens, UniProt P50750); conditions: 10µM

## CO[C@@H]1[C@H](N(C)C(=O)CCC(=O)NCc2cn(CCCS(=O)(=O)O)nn2)C[C@H]2O[C@]1(C)n1c3ccccc3c3c4c(c5c6ccccc6n2c5c31)C(=O)NC4 [CIMSS]
ALK1/ACVRL1
  % Enzyme Activity (relative to DMSO controls): 69.61%
ALK5/TGFBR1
  % Enzyme Activity (relative to DMSO controls): 85.77%
Aurora A
  % Enzyme Activity (relative to DMSO controls): 1.08%
CAMK1b
  % Enzyme Activity (relative to DMSO controls): 57.60%
CAMK1g
  % Enzyme Activity (relative to DMSO controls): 8.82%
CDK6/cyclin D3
  % Enzyme Activity (relative to DMSO controls): 54.89%
CK2a
  % Enzyme Activity (relative to DMSO controls): 70.67%
EPHA3
  % Enzyme Activity (relative to DMSO controls): 37.82%
EPHA6
  % Enzyme Activity (relative to DMSO controls): 33.33%
FMS
  % Enzyme Activity (relative to DMSO controls): 0.92%
HIPK3
  % Enzyme Activity (relative to DMSO controls): 13.73%
IKKb/IKBKB
  % Enzyme Activity (relative to DMSO controls): 31.51%
LATS2
  % Enzyme Activity (relative to DMSO controls): 6.32%
LCK2/ICK
  % Enzyme Activity (relative to DMSO controls): 4.44%
LRRK2
  % Enzyme Activity (relative to DMSO controls): 1.00%
MARK4
  % Enzyme Activity (relative to DMSO controls): 0.72%
MKK7
  % Enzyme Activity (relative to DMSO controls): 94.42%
P38d/MAPK13
  % Enzyme Activity (relative to DMSO controls): 69.92%
PAK5
  % Enzyme Activity (relative to DMSO controls): 7.41%
PHKg1
  % Enzyme Activity (relative to DMSO controls): 3.44%
PHKg2
  % Enzyme Activity (relative to DMSO controls): 17.90%
PIM1
  % Enzyme Activity (relative to DMSO controls): 0.79%
PKCzeta
  % Enzyme Activity (relative to DMSO controls): 55.85%
PKN3/PRK3
  % Enzyme Activity (relative to DMSO controls): 14.75%
RON/MST1R
  % Enzyme Activity (relative to DMSO controls): 25.03%
ROS/ROS1
  % Enzyme Activity (relative to DMSO controls): 4.19%
SRMS
  % Enzyme Activity (relative to DMSO controls): 90.39%
STK38L/NDR2
  % Enzyme Activity (relative to DMSO controls): 22.41%
WNK1
  % Enzyme Activity (relative to DMSO controls): 107.75%
YSK4/MAP3K19
  % Enzyme Activity (relative to DMSO controls): 3.38%
AMPK(A1/B1/G2)
  % Enzyme Activity (relative to DMSO controls): 1.23%
AMPK(A1/B2/G1)
  % Enzyme Activity (relative to DMSO controls): 0.57%
AMPK(A2/B2/G3)
  % Enzyme Activity (relative to DMSO controls): 0.61%
EEF2K
  % Enzyme Activity (relative to DMSO controls): 97.05%
HSV-2(G); dose 0.1, replicates (Fig 3a source data)
  viral plaque numbers relative to the DMSO controls: 74% and 73.4% and 64% and 57%
HSV-2(G); dose 1, replicates (Fig 3a source data)
  viral plaque numbers relative to the DMSO controls: 70% and 69% and 45% and 52%
HSV-2(G); dose 10, replicates (Fig 3a source data)
  viral plaque numbers relative to the DMSO controls: 26.8% and 30.9% and 10% and 14.36%
HSV-2(G); dose 50, replicates (Fig 3a source data)
  viral plaque numbers relative to the DMSO controls: 30.9% and 30.2% and 14% and 25%
CDK9/cyclin K
  % Enzyme Activity (relative to DMSO controls): 11.18%
